Source: PubChem (several laboratories)
The list is not random: actives were taken first. Their share in the collection is about 1.5%.
eIF4H FP inh = inhibitors of RNA binding by human eIF4H. Q15056. eIF4H fluorescence polarization binding assay. inhibition, % at 35 µM. hit rate 0.94% among 290,000;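 also: calls also rest on retests at 20 µM and on dose response follow-up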
Yeast UUG start = modulators of start codon recognition fidelity in yeast; S. cerevisiae UUG-firefly luciferase reporter, luminescence/redox ratio; activity score, % at 18.7 µM; hit rate 0.13% among 350,000; AID 602363;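 active = replicate mean at a twofold rise or more, about +100% in these data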;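 note: firefly luciferase made from a UUG start codon reports start codon fidelity; reporter light over untreated wells divided by growth signal over untreated wells; some hits fall short of that in this replicate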
PABP polyA inh = blocks human PABP binding to poly(A) RNA; P11940; fluorescence polarization; calls only at 35 µM; hit rate 1% among 290,000; AID 2014;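 also: calls also rest on retests at 20 µM and on dose response follow-up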
Pemphigus Ab inh = blocks pemphigus antibody binding to human desmoglein-3; P32926; DSG3-coupled beads, scFv-anti-DSG3-GFP binding, flow cytometry; hits give low values; binding (percent of control), % at 10 µM; hit rate 0.48% among 310,000;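 active = binding more than 3 SD below its plate's average and above zero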;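 also: hits lower antibody fragment binding to DSG3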
PABP1 MLLE inh = blocks PAM2 peptide binding to the PABP1 MLLE domain | GST-MLLE / FITC-PAM2 fluorescence polarization | P11940 | AID 588489 | inhibition, % at 20 µM | hit rate 0.36% among 360,000; in the data active = inhibition above about 35%, passing the limit was not always enough
Numbers stand for hits; – = inactive; · = not tested or not shown; + = active, no number. Unless noted, no rule for the calls is given here.

SMILES	eIF4H FP inh	Yeast UUG start	PABP polyA inh	Pemphigus Ab inh	PABP1 MLLE inh
O=C(c1cccc(F)c1)N1C[C@@H]2[C@H](c3ccccc31)[C@H](CO)N2C(=O)C1CCCC1	·	–	·	·	·
CO[C@H]1CN(C)C(=O)c2cc(NC(=O)Nc3c(C)noc3C)ccc2OC[C@H](C)N(CC2CC2)C[C@@H]1C	·	–	·	·	·
Cc1cc2cc(CNC(=S)NCc3ccccc3)ccc2n1C	–	–	–	·	–
Cc1cc2cc(CNC(=O)c3ccc(C)c([N+](=O)[O-])c3)ccc2[nH]1	–	–	–	–	43
Cc1cc2cc(CNC(=O)Nc3ccccc3)ccc2n1C	–	–	–	–	63
Cc1nn(C)cc1C(C(=O)NC1CCCCC1)N(C(=O)Cc1cccs1)c1ccc(F)cc1 (configuration not stated)	–	·	–	-2.6	–
Cc1nn(C)cc1C(C(=O)NC1CCCCC1)N(C(=O)Cc1cccs1)c1ccc(C(C)C)cc1 (configuration not stated)	–	–	–	–	–
COc1ccc(CN(C)C[C@@H]2OCCCC[C@@H](C)Oc3ccc(NC(=O)CCC(F)(F)F)cc3C(=O)N([C@@H](C)CO)C[C@H]2C)cc1	·	–	·	·	·
c1cc2c3c(cccc3c1)NC1(CCCC1)N2	·	–	·	–	43
COc1cccc(S(=O)(=O)Nc2ccc3c(c2)[C@@H]2C[C@@H](CC(=O)NCc4cccc(F)c4)O[C@H](CO)[C@@H]2O3)c1	·	–	·	·	·
CCC(C)n1cnc2c(c1=O)c1nc3ccccc3nc1n2-c1ccc2c(c1)OCCO2 (configuration not stated)	–	–	–	42	–
O=C1CNC(=O)/C(=C/c2ccco2)N1	106	–	–	–	–
O=C1C(=Cc2ccco2)C(=O)c2ccccc21	–	·	–	–	–
NC(=O)C(c1cccc(Cl)c1)c1ncc(C(F)(F)F)cc1Cl (configuration not stated)	–	–	–	·	–
NC(=S)C(c1ccccc1)c1ncc(C(F)(F)F)cc1Cl (configuration not stated)	–	–	–	–	42
CC=Cc1ccc2n(c1=O)C[C@H]1[C@H](CO)[C@@H](C(=O)NCc3ccc(F)cc3)[C@@H]2N1S(C)(=O)=O (mixture of isomers)	·	–	·	·	·
COc1ccc2c(c1)c(CC(=O)Nc1cc(C)ccc1C)c(C)n2C(=O)c1ccc(Cl)cc1	–	–	–	–	–
COc1ccc2c(c1)c(CC(=O)Nc1ccc(C(C)=O)cc1)c(C)n2C(=O)c1ccc(Cl)cc1	53	·	+	–	–
CNC[C@@H]1Oc2c(NC(=O)c3cc(C)nn3C)cccc2C(=O)N([C@H](C)CO)C[C@@H]1C	·	–	·	·	·
O=C(NCc1ccc(Cl)cc1)c1ccncc1	–	–	–	83	–
Oc1ccc(/C=N/N2CCOCC2)c(O)c1O	98	·	+	–	–
Oc1ccc(/C=N/N2CCCCC2)c(O)c1O	–	–	–	–	–
Cc1nc2ccccc2c(=O)n1/N=C/c1ccccc1O	–	–	–	–	–
Cc1nc2ccccc2c(=O)n1/N=C/c1ccc(O)c(O)c1O	90	–	+	–	–
Cc1[nH]n(-c2ccccc2)c(=O)c1/C=N/n1c(C)nc2ccccc2c1=O	–	–	+	–	–
SMILES	eIF4H FP inh	Yeast UUG start	PABP polyA inh	Pemphigus Ab inh	PABP1 MLLE inh
O=C1c2ccccc2C(=O)N1/N=C/c1ccc(O)c(O)c1O	98	–	+	–	–
COc1ccccc1CN(C)C[C@@H]1OCc2cnnn2CCCC(=O)N([C@H](C)CO)C[C@@H]1C	·	–	·	·	·
C[C@@H]1CN([C@@H](C)CO)C(=O)Cc2cc(NC(=O)NC3CCCCC3)ccc2O[C@H]1CN(C)S(=O)(=O)c1ccccc1	·	–	·	·	·
COc1ccc(NC(=O)O[C@@H](c2ccc(OC)c(O)c2)[C@H](CCO)OC)cc1	·	–	·	·	·
C[C@@H]1CCCCO[C@@H](CN(C)C)[C@@H](C)CN([C@@H](C)CO)C(=O)c2cc(NS(=O)(=O)c3ccc(Cl)cc3)ccc2O1	·	–	·	·	·
CN(C)c1nc2n(c(=O)n1)CCS2	–	–	–	–	–
CN(C)c1nc2n(c(=O)n1)C(C#N)CS2 (configuration not stated)	–	–	–	–	40
CN(C1=NC(=O)C(CC(=O)O)S1)c1ccc(O)cc1 (configuration not stated)	–	·	–	23	–
O=C(CSc1nc2c(c(=O)n1-c1ccc(F)cc1)SCC2)NCc1ccco1	–	–	–	–	45
CC(=O)N(C)C[C@H]1[C@H](c2ccc(-c3cccc(C#N)c3)cc2)[C@@H](CO)N1C(C)=O	·	–	·	·	·
COc1ccc(NC(=O)Nc2ccc3c(c2)[C@@H]2C[C@H](CC(=O)NCc4ccc5c(c4)OCO5)O[C@@H](CO)[C@@H]2O3)cc1	·	–	·	·	·
O=C(CCl)Nc1ccccc1Sc1ccccc1	–	509	–	–	–
CC(=O)NC(=S)Nc1ccccc1C(=O)Nc1ccccc1	–	·	–	–	–
CCCCC(=O)NC(=S)Nc1ccccc1C(=O)Nc1ccccc1	–	·	–	–	40
COc1ccc(Cl)cc1C(=O)C1CCCN(Cc2cnc(N3CCOCC3)s2)C1 (configuration not stated)	–	·	–	28	–
Oc1ccc(Br)cc1C=Nc1cccn2cc(-c3ccccc3)nc12	–	·	–	–	40
Oc1ccc(Br)cc1/C=N/n1c(-c2ccccc2)n[nH]c1=S	–	–	–	–	–
Cc1nonc1NC(=O)CSc1nc(C23CC4CC(CC(C4)C2)C3)nc2ccccc12	–	–	–	–	–
NC(=O)CSc1nc(C23CC4CC(CC(C4)C2)C3)nc2ccccc12	–	·	+	–	–
C[C@H](CO)N1C[C@H](C)[C@H](CN(C)S(=O)(=O)c2ccc(Cl)cc2)Oc2c(NC(=O)Nc3ccc(C(F)(F)F)cc3)cccc2C1=O	·	–	·	·	·
COc1ccc(CCNC(=O)c2ccc3c(=O)n(Cc4ccco4)c(=S)[nH]c3c2)cc1OC	73	–	+	–	–
COc1ccc(CCNC(=O)c2ccc3nc(-c4ccco4)c(-c4ccco4)nc3c2)cc1OC	106	–	+	–	38
CC(C)NC(=O)c1ccc2c(=O)n(Cc3ccco3)c(=S)[nH]c2c1	–	–	–	–	–
CCCNC(=O)c1ccc2c(=O)n(Cc3ccco3)c(=S)[nH]c2c1	91	–	+	·	–
COc1ccccc1-c1ccc([C@@H]2[C@H]3CN(S(=O)(=O)c4cn(C)cn4)CCCCN3[C@H]2CO)cc1	·	–	·	·	·
SMILES	eIF4H FP inh	Yeast UUG start	PABP polyA inh	Pemphigus Ab inh	PABP1 MLLE inh
CC(O)c1n(C)c(Cl)c[n+]1C (configuration not stated)	–	–	+	–	–
CCS(=O)(=O)N1CCCCN2[C@H](CO)[C@H](c3ccc(-c4cccc(C#N)c4)cc3)[C@H]2C1	·	–	·	·	·
CC(C)OC(=O)c1nn2c(C(F)(F)F)cc(-c3ccc(Br)o3)nc2c1Br	44	·	+	·	–
Cc1nc(C)c(C(=O)Nc2nc3c(C)cccc3s2)o1	70	–	+	–	–
O=C(C[C@H]1CC[C@@H]2[C@H](COC[C@H](O)CN2S(=O)(=O)c2ccc(Cl)cc2)O1)NCCN1CCCC1	·	–	·	·	·
N#Cc1c(=O)c2nc(NCCCO)ncc2n2c(=O)c3ccccc3[nH]c12	78	·	+	–	–
